Read-outs that look alike come from different tables or passages of the source.
Key:
[1] = molecular target: recombinant human cGAS (aa147-522) (Homo sapiens, UniProt Q8N884); assay: In vitro inhibition assay of cGAS activity (ATP consumption, KinaseGlo Max); type: biochemical
Procedure: Expression and Purification of Recombinant cGAS Protein: cDNA encoding full-length or amino acids […] of human cGAS was inserted into a modified pET28a vector containing an in-frame His6-SUMO tag. The E. coli strain BL21/pLys harboring the plasmid was induced with 0.5 mM IPTG at 18° C. overnight. His6-SUMO tag was removed by a SUMO protease digestion following purification of the His6-SUMO-cGAS as described previously (Sun et al, 2013, Science 339, 786).
In vitro inhibition assay of cGAS activity: A 60 μL mixture containing 20 mM Tris-Cl, pH 7.5, 5 mM MgCl2, 0.2 mg/mL BSA, 0.01 mg/mL Herring testis DNA, 6.6 μM ATP, 0.1 mM GTP, 1.5 μg/mL of recombinant human cGAS (aa147-522) and serial dilutions of a test compound in DMSO was added to a 96-well plate and incubated at 37° C. for 20 minutes. At the end of reaction, 40 μL of KinaseGlo Max (Promega) was added and chemiluminescence was measured with a luminometer. Inhibitory effect of a compound is evaluated by plotting percentage of ATP consumption against logarithm of compound concentrations. IC50 value was calculated using GraphPad Prism 8 (GraphPad Software, Inc.).
The letter codes for cGAS IC50 include: A (<2 μM); B (2-30 μM); C (>30 μM).

Chains of the proteins cited; added tags and fusions are not shown. Residues count along the entry.
UniProt Q8N884, 147-522 limits assumed: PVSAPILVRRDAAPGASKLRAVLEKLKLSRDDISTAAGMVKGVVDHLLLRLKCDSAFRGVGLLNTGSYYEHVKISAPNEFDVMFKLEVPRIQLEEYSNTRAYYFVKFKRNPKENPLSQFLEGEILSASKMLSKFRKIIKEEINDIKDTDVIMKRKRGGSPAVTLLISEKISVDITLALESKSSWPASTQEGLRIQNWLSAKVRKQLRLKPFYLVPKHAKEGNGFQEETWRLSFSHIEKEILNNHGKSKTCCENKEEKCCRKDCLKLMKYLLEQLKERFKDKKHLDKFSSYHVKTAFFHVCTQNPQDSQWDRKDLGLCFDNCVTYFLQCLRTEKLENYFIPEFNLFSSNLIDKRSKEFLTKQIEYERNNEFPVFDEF

[2] = system: cGAS activity in Reporter THP1 cell line; assay: Cellular assay to measure cGAS activity: ISRE-Gaussia luciferase reporter THP1 cells transfected with ISD
Procedure: Cellular assay to measure cGAS activity: Reporter THP1 cell line harboring a gene encoding Gaussia Luciferase under the control of 5 tandem repeats of interferon-stimulated response elements (ISRE) fused to an ISG54 minimal promoter was used to test inhibition of cGAS activity by synthetic compounds in human cells. These cells were plated on 96-well plates at 0.3×10^6/well and incubated with serial dilutions of compounds or DMSO for 5 min, followed by transfection of 2 μg/mL of ISD (Interferon Stimulatory DNA, a 45 bp DNA oligo) or mock transfected using lipofectamine 2000 (Life Technology) method, according to manufacturer's instructions. 16 hours later, 15 μL of the media from each well was transferred to a new plate, 50 μL of solution containing 50 mM Hepes-NaOH, pH 6.5, 50 mM NaCl, 10 mM EDTA, 1 μM of coelenterazine was added to each well and luminescence was measured immediately. Fold increase in luminescence compared to mock transfection was plotted against concentrations of each compound, and IC50 is calculated using Graphpad. To evaluate the specificity of a compound, the same procedure was performed except that cells were transfected with 2 μg/mL poly(I:C) or infected with Sendai Virus (SeV) at 50 Unit/mL, which are known to activate the RIG-I-MAVS pathway. […]

IC50 ([1]; read-out: cGAS Inhibition Results IC50, Table 3, tested form: TFA) | IC50 ([2]; read-out: Cellular Assay Results IC50, untitled table after Table 4 (continuation), tested form: TFA) | Compound | IC50 ([1]; read-out: cGAS Inhibition Results IC50, Table 3) | IC50 ([2]; read-out: Cellular Assay Results IC50, untitled table after Table 4 (continuation))
< 2000 nM | > 10000 nM | COC(=O)[C@@H]1[C@H](COCCC(=O)O)CCN1c1cc(-n2ccnc2)c2ccc(Cl)c(Cl)c2n1 (relative stereo) |  | 
 |  | O=C(O)c1cccc(OCCNc2cc(-n3ccnc3)c3ccc(Cl)c(Cl)c3n2)c1 | < 2000 nM | 2000 to 10000 nM
